# Assay results: ChEMBL document CHEMBL4396869, “Design and Synthesis of Selective Phosphodiesterase 4D (PDE4D) Allosteric Inhibitors for the Treatment of Fragile X Syndrome and Other Brain Disorders” (J Med Chem, 2019)
# Tests used:
# [1] = species: Homo sapiens; test: Selectivity ratio of IC50 for recombinant human wild-type His6-tagged PDE4D7 UCR1 domain (S129 residues) expressed in baculovirus infected Sf9 insect cells to IC50 for recombinant human His6-tagged PDE4D7 UCR1 S129D mutant expressed in baculovirus infected Sf9 insect cells
# [2] = species: Homo sapiens; test: Selectivity ratio of IC50 for recombinant human His6-tagged PDE4B1 UCR1 S133D mutant expressed in baculovirus infected Sf9 insect cells to IC50 for recombinant human His6-tagged PDE4D7 UCR1 S129D mutant expressed in baculovirus infected Sf9 insect cells
smiles,measurement,setting,value
NC(=O)CCc1ccc(Nc2cc(-c3cccc(Cl)c3)nc3c2CCC3)cc1,Ratio IC50,[1],37
same,Ratio IC50,[2],5
CCc1cc(Oc2ccc(CC(N)=O)cc2)nc(-c2cccc(Cl)c2)n1,Ratio IC50,[1],69
same,Ratio IC50,[2],27
CN(C)C(=O)Cc1ccc(Nc2cc(-c3cccc(Cl)c3)nc3c2CCC3)cc1,Ratio IC50,[1],18
same,Ratio IC50,[2],7
CCc1cc(Cc2ccc(CCO)cc2)nc(-c2cccc(Cl)c2)n1,Ratio IC50,[1],267
same,Ratio IC50,[2],292
NC(=O)Cc1ccc(S(=O)(=O)c2cc(-c3cccc(Cl)c3)nc3c2CCC3)cc1,Ratio IC50,[2],8
CNC(=O)Cc1ccc(Nc2cc(-c3cccc(Cl)c3)nc3c2CCC3)cc1,Ratio IC50,[1],15
same,Ratio IC50,[2],1
CCc1nc(Nc2ccc(CCCO)cc2)nc(-c2cccc(Cl)c2)n1,Ratio IC50,[1],135
same,Ratio IC50,[2],55
CCc1nc(Nc2ccc(CO)cc2)nc(-c2cccc(Cl)c2)n1,Ratio IC50,[1],30
same,Ratio IC50,[2],9
OCCc1cccc(Nc2cc(-c3cccc(Cl)c3)nc3c2CCC3)c1,Ratio IC50,[1],28
same,Ratio IC50,[2],6
NC(=O)Cc1ccc(Cc2cc(-c3cccc(Cl)c3)nc3c2CCC3)cc1,Ratio IC50,[1],94
same,Ratio IC50,[2],16
CCc1cc(Nc2ccc(CCO)cc2)nc(-c2cccc(Cl)c2)n1,Ratio IC50,[1],135
same,Ratio IC50,[2],52
CCc1cc(Oc2ccc(CCO)cc2)nc(-c2cccc(Cl)c2)n1,Ratio IC50,[1],139
same,Ratio IC50,[2],32
CN(c1ccc(CC(N)=O)cc1)c1cc(-c2cccc(Cl)c2)nc2c1CCC2,Ratio IC50,[2],4
